Chains of the proteins cited; added tags and fusions are not shown.
UniProt P61073, whole entry: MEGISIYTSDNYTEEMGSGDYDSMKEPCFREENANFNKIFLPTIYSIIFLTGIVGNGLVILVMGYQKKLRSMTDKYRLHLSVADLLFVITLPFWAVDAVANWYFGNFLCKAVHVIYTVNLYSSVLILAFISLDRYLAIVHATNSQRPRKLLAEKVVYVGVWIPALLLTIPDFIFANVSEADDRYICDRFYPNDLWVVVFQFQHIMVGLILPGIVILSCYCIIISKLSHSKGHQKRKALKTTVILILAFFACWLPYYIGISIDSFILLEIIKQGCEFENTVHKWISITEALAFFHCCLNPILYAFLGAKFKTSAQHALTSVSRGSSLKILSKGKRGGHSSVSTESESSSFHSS

In patent publication US8628750B2, “Cancer imaging and treatment” (Technische Universitat Munchen, priority 2006, dated 2014):

target: human CXCR4 (Homo sapiens, UniProt P61073); assay: cell-based; assay type: binding; parameters: Jurkat cells that endogenously express the CXCR4 receptor; endogenous in cells; host or cells: Jurkat (ATCC)
Protocol: For receptor binding assays cells were resuspended in PBS/0.2% BSA. […] Cell bound radioactivity was determined by using a gamma counter.

Q: How did the IC50 turn out when `C[C@@H]1NC(=O)[C@H](Cc2ccc3ccccc3c2)NC(=O)[C@H](CCCNC(=N)N)N(C)C(=O)[C@H](CCCNC(=N)N)NC(=O)[C@@H](Cc2ccc(O)cc2)NC(=O)CNC1=O` [BL66, cyc[(Me)Arg-Nal-Ala-Gly-D-Tyr-Arg]] was run?
A: > 1000 nM

Q: With `C[C@@H]1NC(=O)[C@H](Cc2ccc3ccccc3c2)N(C)C(=O)[C@H](CCCNC(=N)N)NC(=O)[C@H](CCCNC(=N)N)NC(=O)[C@@H](Cc2ccc(O)cc2)NC(=O)CNC1=O` [BL67, cyc[Arg-(Me)Nal-Ala-Gly-D-Tyr-Arg]] as the molecule, how does the IC50 read?
A: > 1000 nM

Q: Which IC50 does the source give for `C[C@H]1C(=O)NCC(=O)N[C@H](Cc2ccc(O)cc2)C(=O)N[C@@H](CCCNC(=N)N)C(=O)N[C@@H](CCCNC(=N)N)C(=O)N[C@@H](Cc2ccc3ccccc3c2)C(=O)N1C` [BL68, cyc[Arg-Nal-(Me)Ala-Gly-D-Tyr-Arg]] here?
A: > 1000 nM

Q: Which IC50 does the source give for `C[C@@H]1NC(=O)[C@H](Cc2ccc3ccccc3c2)NC(=O)[C@H](CCCNC(=N)N)NC(=O)[C@H](CCCNC(=N)N)NC(=O)[C@@H](Cc2ccc(O)cc2)NC(=O)CN(C)C1=O` [BL69, cyc[Arg-Nal-Ala-(Me)Gly-D-Tyr-Arg]] here?
A: > 1000 nM

Q: `C[C@@H]1NC(=O)[C@H](Cc2ccc3ccccc3c2)NC(=O)[C@H](CCCNC(=N)N)NC(=O)[C@H](CCCNC(=N)N)N(C)C(=O)[C@@H](Cc2ccc(O)cc2)NC(=O)CNC1=O` [BL71, cyc[Arg-Nal-Ala-Gly-D-Tyr-(Me)Arg]] was tested. Which IC50 did it give?
A: ~1000 nM

Q: `C[C@@H]1NC(=O)[C@H](Cc2ccc3ccccc3c2)NC(=O)[C@H](CCCNC(=N)N)N(C)C(=O)[C@H](CCCNC(=N)N)N(C)C(=O)[C@@H](Cc2ccc(O)cc2)NC(=O)CNC1=O` [BL72, cyc[(Me)Arg-Nal-Ala-Gly-D-Tyr-(Me)Arg]] was tested. Which IC50 did it give?
A: > 1000 nM

Q: With `C[C@@H]1NC(=O)[C@H](Cc2ccc3ccccc3c2)N(C)C(=O)[C@H](CCCNC(=N)N)NC(=O)[C@H](CCCNC(=N)N)N(C)C(=O)[C@@H](Cc2ccc(O)cc2)NC(=O)CNC1=O` [BL73, cyc[Arg-(Me)Nal-Ala-Gly-D-Tyr-(Me)Arg]] as the molecule, how does the IC50 read?
A: > 1000 nM

Q: Which IC50 does the source give for `C[C@H]1C(=O)NCC(=O)N[C@H](Cc2ccc(O)cc2)C(=O)N(C)[C@@H](CCCNC(=N)N)C(=O)N[C@@H](CCCNC(=N)N)C(=O)N[C@@H](Cc2ccc3ccccc3c2)C(=O)N1C` [BL74, cyc[Arg-Nal-(Me)Ala-Gly-D-Tyr-(Me)Arg]] here?
A: > 1000 nM

Q: With `C[C@@H]1NC(=O)[C@H](Cc2ccc3ccccc3c2)NC(=O)[C@H](CCCNC(=N)N)NC(=O)[C@H](CCCNC(=N)N)N(C)C(=O)[C@@H](Cc2ccc(O)cc2)NC(=O)CN(C)C1=O` [BL75, cyc[Arg-Nal-Ala-(Me)Gly-D-Tyr-(Me)Arg]] as the molecule, how does the IC50 read?
A: > 1000 nM

Q: `C[C@@H]1NC(=O)[C@H](Cc2ccc3ccccc3c2)NC(=O)[C@H](CCCNC(=N)N)N(C)C(=O)[C@H](CCCNC(=N)N)NC(=O)[C@@H](Cc2ccc(O)cc2)NC(=O)CN(C)C1=O` [BL81, cyc[(Me)Arg-Nal-Ala-(Me)Gly-D-Tyr-Arg]] was tested. Which IC50 did it give?
A: > 1000 nM

Q: With `C[C@@H]1NC(=O)[C@H](Cc2ccc3ccccc3c2)N(C)C(=O)[C@H](CCCNC(=N)N)NC(=O)[C@H](CCCNC(=N)N)NC(=O)[C@@H](Cc2ccc(O)cc2)NC(=O)CN(C)C1=O` [BL82, cyc[Arg-(Me)Nal-Ala-(Me)Gly-D-Tyr-Arg]] as the molecule, how does the IC50 read?
A: > 1000 nM

Q: How did the IC50 turn out when `C[C@H]1C(=O)N(C)CC(=O)N[C@H](Cc2ccc(O)cc2)C(=O)N[C@@H](CCCNC(=N)N)C(=O)N[C@@H](CCCNC(=N)N)C(=O)N[C@@H](Cc2ccc3ccccc3c2)C(=O)N1C` [BL83, cyc[Arg-Nal-(Me)Ala-(Me)Gly-D-Tyr-Arg]] was run?
A: > 1000 nM

Q: With `C[C@H]1C(=O)NCC(=O)N[C@H](Cc2ccc(O)cc2)C(=O)N[C@@H](CCCNC(=N)N)C(=O)N(C)[C@@H](CCCNC(=N)N)C(=O)N[C@@H](Cc2ccc3ccccc3c2)C(=O)N1C` [BL84, cyc[(Me)Arg-Nal-(Me)Ala-Gly-D-Tyr-Arg]] as the molecule, how does the IC50 read?
A: > 1000 nM

Q: How did the IC50 turn out when `C[C@H]1C(=O)NCC(=O)N[C@H](Cc2ccc(O)cc2)C(=O)N[C@@H](CCCNC(=N)N)C(=O)N[C@@H](CCCNC(=N)N)C(=O)N(C)[C@@H](Cc2ccc3ccccc3c2)C(=O)N1C` [BL85, cyc[Arg-(Me)Nal-(Me)Ala-Gly-D-Tyr-Arg]] was run?
A: > 1000 nM

Q: With `C[C@@H]1NC(=O)[C@H](Cc2ccc3ccccc3c2)N(C)C(=O)[C@H](CCCNC(=N)N)N(C)C(=O)[C@H](CCCNC(=N)N)NC(=O)[C@@H](Cc2ccc(O)cc2)NC(=O)CNC1=O` [BL86, cyc[(Me)Arg-(Me)Nal-Ala-Gly-D-Tyr-Arg]] as the molecule, how does the IC50 read?
A: > 1000 nM

Q: For `C[C@@H]1NC(=O)[C@H](Cc2ccc3ccccc3c2)N(C)C(=O)[C@H](CCCNC(=N)N)NC(=O)[C@H](CCCNC(=N)N)N(C)C(=O)[C@@H](Cc2ccc(O)cc2)NC(=O)CN(C)C1=O` [BL92, cyc[Arg-(Me)Nal-Ala-(Me)Gly-D-Tyr-(Me)Arg]], which IC50 is on record?
A: > 1000 nM

Q: `C[C@@H]1NC(=O)[C@H](Cc2ccc3ccccc3c2)NC(=O)[C@H](CCCNC(=N)N)N(C)C(=O)[C@H](CCCNC(=N)N)N(C)C(=O)[C@@H](Cc2ccc(O)cc2)NC(=O)CN(C)C1=O` [BL93, cyc[(Me)Arg-Nal-Ala-(Me)Gly-D-Tyr-(Me)Arg]] was tested. Which IC50 did it give?
A: > 1000 nM

Q: With `C[C@H]1C(=O)NCC(=O)N[C@H](Cc2ccc(O)cc2)C(=O)N(C)[C@@H](CCCNC(=N)N)C(=O)N[C@@H](CCCNC(=N)N)C(=O)N(C)[C@@H](Cc2ccc3ccccc3c2)C(=O)N1C` [BL94, cyc[Arg-(Me)Nal-(Me)Ala-Gly-D-Tyr-(Me)Arg]] as the molecule, how does the IC50 read?
A: > 1000 nM

Q: Which IC50 does the source give for `C[C@H]1C(=O)N(C)CC(=O)N[C@H](Cc2ccc(O)cc2)C(=O)N[C@@H](CCCNC(=N)N)C(=O)N[C@@H](CCCNC(=N)N)C(=O)N(C)[C@@H](Cc2ccc3ccccc3c2)C(=O)N1C` [BL102, cyc[Arg-(Me)Nal-(Me)Ala-(Me)Gly-D-Tyr-Arg]] here?
A: > 1000 nM

Q: Which IC50 does the source give for `C[C@@H]1NC(=O)[C@H](Cc2ccc3ccccc3c2)N(C)C(=O)[C@H](CCCNC(=N)N)N(C)C(=O)[C@H](CCCNC(=N)N)NC(=O)[C@@H](Cc2ccc(O)cc2)NC(=O)CN(C)C1=O` [BL104, cyc[(Me)Arg-(Me)Nal-Ala-(Me)Gly-D-Tyr-Arg]] here?
A: > 1000 nM

Q: With `N=C(N)NCCC[C@@H]1NC(=O)[C@H](CCCNC(=N)N)NC(=O)[C@@H](Cc2ccc(O)cc2)NC(=O)CNC(=O)CNC(=O)[C@H](Cc2ccc3ccccc3c2)NC1=O` [BL130, cyc[D-Tyr-Arg-Arg-Nal-Gly-Gly]] as the molecule, how does the IC50 read?
A: ~1000 nM

Q: `C[C@@H]1NC(=O)[C@H](CCCNC(=N)N)NC(=O)[C@H](CCCNC(=N)N)NC(=O)[C@@H](Cc2ccc(O)cc2)NC(=O)CNC(=O)[C@H](Cc2ccc3ccccc3c2)NC1=O` [BL131, cyc[D-Tyr-Arg-Arg-Ala-Nal-Gly]] was tested. Which IC50 did it give?
A: > 1000 nM

Q: For `C[C@@H]1NC(=O)[C@H](CCCNC(=N)N)NC(=O)[C@@H](Cc2ccc(O)cc2)NC(=O)CNC(=O)[C@H](Cc2ccc3ccccc3c2)NC(=O)[C@H](CCCNC(=N)N)NC1=O` [BL132, cyc[D-Tyr-Arg-Ala-Arg-Nal-Gly]], which IC50 is on record?
A: > 1000 nM

Q: With `C[C@H]1NC(=O)[C@H](CCCNC(=N)N)NC(=O)[C@@H](Cc2ccc(O)cc2)NC(=O)CNC(=O)[C@H](Cc2ccc3ccccc3c2)NC(=O)[C@H](CCCNC(=N)N)NC1=O` [BL133, cyc[D-Tyr-Arg-D-Ala-Arg-Nal-Gly]] as the molecule, how does the IC50 read?
A: > 1000 nM

Q: How did the IC50 turn out when `C[C@H]1NC(=O)[C@@H](Cc2ccc(O)cc2)NC(=O)CNC(=O)[C@H](Cc2ccc3ccccc3c2)NC(=O)[C@H](CCCNC(=N)N)NC(=O)[C@H](CCCNC(=N)N)NC1=O` [BL134, cyc[D-Tyr-D-Ala-Arg-Arg-Nal-Gly]] was run?
A: > 1000 nM

Q: How did the IC50 turn out when `C[C@@H]1NC(=O)[C@@H](Cc2ccc(O)cc2)NC(=O)CNC(=O)[C@H](Cc2ccc3ccccc3c2)NC(=O)[C@H](CCCNC(=N)N)NC(=O)[C@H](CCCNC(=N)N)NC1=O` [BL135, cyc[D-Tyr-Ala-Arg-Arg-Nal-Gly]] was run?
A: > 1000 nM

Q: `C[C@H]1NC(=O)CNC(=O)[C@H](Cc2ccc3ccccc3c2)NC(=O)[C@H](CCCNC(=N)N)NC(=O)[C@H](CCCNC(=N)N)NC(=O)[C@@H](Cc2ccc(O)cc2)NC1=O` [BL136, cyc[D-Ala-D-Tyr-Arg-Arg-Nal-Gly]] was tested. Which IC50 did it give?
A: > 1000 nM

Q: For `C[C@@H]1NC(=O)CNC(=O)[C@H](Cc2ccc3ccccc3c2)NC(=O)[C@H](CCCNC(=N)N)NC(=O)[C@H](CCCNC(=N)N)NC(=O)[C@@H](Cc2ccc(O)cc2)NC1=O` [BL137, cyc[Ala-D-Tyr-Arg-Arg-Nal-Gly]], which IC50 is on record?
A: ~1000 nM

Q: For `C[C@H]1NC(=O)[C@H](CCCNC(=N)N)NC(=O)[C@H](CCCNC(=N)N)NC(=O)[C@@H](Cc2ccc(O)cc2)NC(=O)CNC(=O)[C@H](Cc2ccc3ccccc3c2)NC1=O` [BL 37, cyc[D-Tyr-Arg-Arg-D-Ala-Nal-Gly]], which IC50 is on record?
A: ~1000 nM

Q: Which IC50 does the source give for `C[C@@H]1NC(=O)[C@@H](C)NC(=O)[C@H](CCCNC(=N)N)NC(=O)[C@H](CCCNC(=N)N)NC(=O)[C@@H](Cc2ccc(O)cc2)NC(=O)CNC1=O` [BL 39, cyc[D-Tyr-Arg-Arg-D-Ala-Ala-Gly]] here?
A: > 1000 nM

Q: With `CC(F)C(=O)NC[C@@H]1NC(=O)[C@H](Cc2ccc3ccccc3c2)NC(=O)[C@H](CCCNC(=N)N)NC(=O)[C@H](CCCNC(=N)N)NC(=O)[C@@H](Cc2ccc(O)cc2)NC(=O)CNC1=O` (stereo partly drawn) [BL 58, cyc[D-Tyr-Arg-Arg-Nal-Dap(FP)-Gly]] as the molecule, how does the IC50 read?
A: ~1000 nM

Q: Which IC50 does the source give for `CN1C(=O)[C@H](CCCNC(=N)N)NC(=O)[C@@H](Cc2ccc(O)cc2)NC(=O)CNC(=O)[C@H](Cc2ccc3ccccc3c2)N(C)C(=O)[C@@H]1CCCNC(=N)N` [OD12, cyc[(Me)Arg-(Me)Nal-Gly-D-Tyr-Arg]] here?
A: > 1000 nM

Q: `CN1CC(=O)N[C@H](Cc2ccc(O)cc2)C(=O)N(C)[C@@H](CCCNC(=N)N)C(=O)N[C@@H](CCCNC(=N)N)C(=O)N[C@@H](Cc2ccc3ccccc3c2)C1=O` [OD15, cyc[Arg-Nal-(Me)Gly-D-Tyr-(Me)Arg]] was tested. Which IC50 did it give?
A: 300 to 400 nM

Q: Which IC50 does the source give for `CN1C(=O)CNC(=O)[C@H](Cc2ccc3ccccc3c2)NC(=O)[C@H](CCCNC(=N)N)NC(=O)[C@H](CCCNC(=N)N)N(C)C(=O)[C@H]1Cc1ccc(O)cc1` [OD16, cyc[Arg-Nal-Gly-(Me)D-Tyr-(Me)Arg]] here?
A: ~1000 nM

Q: With `CN1CC(=O)N[C@H](Cc2ccc(O)cc2)C(=O)N[C@@H](CCCNC(=N)N)C(=O)N[C@@H](CCCNC(=N)N)C(=O)N(C)[C@@H](Cc2ccc3ccccc3c2)C1=O` [OD18, cyc[Arg-(Me)Nal-(Me)Gly-D-Tyr-Arg]] as the molecule, how does the IC50 read?
A: > 1000 nM

Q: With `CN1CC(=O)N[C@H](Cc2ccc(O)cc2)C(=O)N[C@@H](CCCNC(=N)N)C(=O)N(C)[C@@H](CCCNC(=N)N)C(=O)N[C@@H](Cc2ccc3ccccc3c2)C1=O` [OD19, cyc[(Me)Arg-Nal-(Me)Gly-D-Tyr-Arg]] as the molecule, how does the IC50 read?
A: > 1000 nM
